Values quoted from earlier work in patent US6566120B2, “Conversion of compactin to pravastatin by Actinomadura” (Massachusetts Institute of Technology, priority 1995, dated 2003).

Molecular target: T1, 3-hydroxy-3-methylglutaryl (HMG)-CoA reductase (Homo sapiens, UniProt P04035)
T1 sequence (P04035 1-888): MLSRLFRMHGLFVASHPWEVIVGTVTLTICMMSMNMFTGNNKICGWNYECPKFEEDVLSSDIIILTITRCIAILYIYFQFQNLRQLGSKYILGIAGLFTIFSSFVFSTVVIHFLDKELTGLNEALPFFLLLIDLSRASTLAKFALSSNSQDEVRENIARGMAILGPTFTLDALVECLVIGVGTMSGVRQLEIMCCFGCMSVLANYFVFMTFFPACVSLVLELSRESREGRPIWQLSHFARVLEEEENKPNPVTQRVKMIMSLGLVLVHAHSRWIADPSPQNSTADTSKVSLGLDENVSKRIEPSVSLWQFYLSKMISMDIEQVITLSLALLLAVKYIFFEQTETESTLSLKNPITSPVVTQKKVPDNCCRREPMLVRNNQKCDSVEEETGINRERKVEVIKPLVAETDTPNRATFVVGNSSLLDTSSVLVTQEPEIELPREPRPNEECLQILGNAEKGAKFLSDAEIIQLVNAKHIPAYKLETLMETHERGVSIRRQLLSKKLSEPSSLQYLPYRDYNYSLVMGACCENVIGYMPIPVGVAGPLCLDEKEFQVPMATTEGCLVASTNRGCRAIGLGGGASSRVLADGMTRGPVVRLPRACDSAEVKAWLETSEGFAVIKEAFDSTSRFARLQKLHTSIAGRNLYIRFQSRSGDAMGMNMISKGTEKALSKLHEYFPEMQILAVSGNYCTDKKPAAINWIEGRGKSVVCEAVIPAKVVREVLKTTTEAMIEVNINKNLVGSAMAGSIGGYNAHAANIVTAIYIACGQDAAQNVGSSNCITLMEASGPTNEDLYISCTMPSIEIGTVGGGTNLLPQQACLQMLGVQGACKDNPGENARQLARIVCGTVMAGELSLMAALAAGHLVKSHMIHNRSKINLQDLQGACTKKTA
Settings: have been reported; cited from earlier work

Question: Which “inhibition of HMG-CoA reductase” value does the source give for compactin here?
Answer: competitive inhibitors
